Laboratory results: PubChem BioAssay (Tox21)
Only a part is listed here, and it is no random draw. Results filed as inconclusive are left out. Where a call stands in place of a potency, no number is given. Activity calls are given as the source filed them. Calls come from the whole dose curve; as a rule, active = well fitted activation curve with a large enough effect in the repeat runs; inconclusive = weak or mixed curves; inactive = flat fitted curve, though single readings scatter.

Test: A CellTox Green Cytotoxicity Assay to monitor cytotoxicity in HEK293 cells - 16 hour (AID 1224888); note: nearly all actives have a fitted effect of over 35% in size
Settings: CellTox Green fluorescence; series mostly up to 76.8 µM
Description: National Center for Advancing Translational Sciences [NCATS]
NIH Chemical Genomics Center [NCGC]
U.S. Environmental Protection Agency [EPA]
National Institutes of Environmental Health Sciences [NIEHS]
National Toxicology Program [NTP]
Cell-based models are critical for drug discovery. Determining the natural cytotoxic effects resulting from test compounds is an essential research activity. A CellTox Green Cytotoxicity Assay to monitor cytotoxicity in real time of continues cell culture during 40 hours of the compound treatment was used to screen Tox21 10K library compounds in Hek293 cells. CellTox Green Cytotoxicity Assay is a nonlytic, homogeneous, biofluorescent method to measure cytotoxicity in cell culture after experimental manipulation. The assay system uses a proprietary asymmetric cyanine dye that is excluded from viable cells but preferentially stains the dead cell's DNA. […] Viable cells produce no appreciable increases in fluorescence. Therefore, the fluorescence signal produced by the binding interaction with dead cell DNA is proportional to cytotoxicity.
The mixture of Hek293 cell suspension and reagents were dispensed at 600cells/6 ul/well in 1536-well tissue culture treated black solid bottom plates using a Multidrop dispenser. After the assay plates were incubated at a 37 C/5% CO2 incubator for 5 hours, 23 nL of compounds dissolved in DMSO, positive and negative controls was transferred to the assay plate by a pintool work station. The plates were incubated at 37 C for 40 hours. The fluorescence intensity were measured at 0h, 8h, 16h, 24h, 32h and 40h time points using ViewLux plate reader during compound treatment.
Potency is the fitted concentration of half-maximal effect.

SMILES | Potency
CC(C)OP(C)(=O)OC(C)C | inactive
Cc1ccc([N+](=O)[O-])cc1[N+](=O)[O-] | inactive
N#CBr | inactive
Nc1cc([N+](=O)[O-])cc([N+](=O)[O-])c1O | inactive
CCOP(=O)(CC)OCC | inactive
[NH4+].[O-][Cl+3]([O-])([O-])[O-] | inactive
C/C1=C2N=C(/C=C3N=C(/C(C)=C4\[N-][C@@](C)([C@@H]5N=C1[C@](C)(CCC(=O)NC[C@@H](C)OP(=O)([O-])O[C@H]1[C@@H](O)[C@@H](n6cnc7cc(C)c(C)cc76)O[C@@H]1CO)[C@H]5CC(N)=O)[C@@](C)(CC(N)=O)[C@@H]4CCC(N)=O)[C@@](C)(CC(N)=O)[C@@H]\3CCC(N)=O)C(C)(C)[C@@H]/2CCC(N)=O.[C-]#N.[Co+3] | inactive
COc1ccc([N+](=O)[O-])cc1[N+](=O)[O-] | inactive
O=[N+]([O-])OCC(CO[N+](=O)[O-])(CO[N+](=O)[O-])CO[N+](=O)[O-] | inactive
O=[N+]([O-])c1cccc([N+](=O)[O-])c1 | active: 45.5 µM
OCCSCCO | inactive
Cc1c([N+](=O)[O-])cccc1[N+](=O)[O-] | inactive
CN(C)CCCl | inactive
CCOP(=O)(CC)Oc1ccc([N+](=O)[O-])cc1 (stereo not given) | inactive
N=C(N)N[N+](=O)[O-] | inactive
Cc1cccc([N+](=O)[O-])c1[N+](=O)[O-] | inactive
CCN(CC)CCCl | inactive
CC(C)N(CCO)C(C)C | inactive
COP(C)(=O)OC | inactive
CP(=O)(O)OCCC[Si](O)(O)O | inactive
